# Assay results: article PMC3845904 (Chemical research in toxicology, 2009)
# Experiments:
# human P450 1B1 [1] = molecular target: T1, human P450 1B1 (Homo sapiens, UniProt Q16678); assay: Spectral binding titration
# T1 sequence (Q16678 1-543): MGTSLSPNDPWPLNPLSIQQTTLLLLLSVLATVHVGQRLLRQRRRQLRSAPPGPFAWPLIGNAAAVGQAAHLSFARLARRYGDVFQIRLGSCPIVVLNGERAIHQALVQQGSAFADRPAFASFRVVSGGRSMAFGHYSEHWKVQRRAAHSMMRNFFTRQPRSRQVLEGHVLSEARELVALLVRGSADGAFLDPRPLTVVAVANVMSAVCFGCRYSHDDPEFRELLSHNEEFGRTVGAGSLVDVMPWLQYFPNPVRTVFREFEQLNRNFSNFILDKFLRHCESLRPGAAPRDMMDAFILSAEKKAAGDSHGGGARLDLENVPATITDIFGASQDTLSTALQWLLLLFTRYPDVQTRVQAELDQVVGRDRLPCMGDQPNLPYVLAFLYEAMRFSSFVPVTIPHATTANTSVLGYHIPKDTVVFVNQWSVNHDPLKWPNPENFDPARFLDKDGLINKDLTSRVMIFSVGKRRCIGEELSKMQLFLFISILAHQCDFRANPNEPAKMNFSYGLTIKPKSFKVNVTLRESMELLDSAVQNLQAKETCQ
# human P450 1B1 [2] = molecular target: T1, human P450 1B1; assay: biochemical
SMILES,Kd (human P450 1B1 [1]),IC50 (human P450 1B1 [2]),"Reverse Type I spectra ΔAmax (human P450 1B1 [1]; purified P450 1B1 1.0 μM, means ± SEs, ND = not detected at 100 μM)"
"O=c1cc(-c2ccccc2)oc2c1ccc1ccccc12 [ANF, α-naphthoflavone, reference compound]",12000 ± 1600 nM,3.3 ± 0.3 nM,–
"COc1cc(C=Cc2ccc(OC)cc2OC)cc(OC)c1 [TMS, 2,4,3′,5′-tetramethoxystilbene, reference compound]",4300 ± 700 nM,23 ± 3 nM,0.047 ± 0.003
